How the values were obtained:
[1] = target: human glucagon receptor (human) (UniProt P47871); assay: cell-based or functional assay
[2] = target: human glucagon-like peptide 1 receptor (human) (UniProt P43220); assay: cell-based or functional assay

For “Exendin-4 (from UniProt P26349) (peptide)”, the EC50 of cAMP formation, HEK293 cells expressing human Glucagon-R [1] was > 1000 nM and the EC50 of cAMP formation, HEK293 cells expressing human GLP-1R [2] was 0.02 nM.
